From ChEMBL document CHEMBL5042476, “Structure-Based Design and Development of Chemical Probes Targeting Putative MOR-CCR5 Heterodimers to Inhibit Opioid Exacerbated HIV-1 Infectivity” (J Med Chem, 2021)

Sequences of proteins named here, by UniProt entry; tags and fusion partners are left off.
UniProt P42866, whole entry: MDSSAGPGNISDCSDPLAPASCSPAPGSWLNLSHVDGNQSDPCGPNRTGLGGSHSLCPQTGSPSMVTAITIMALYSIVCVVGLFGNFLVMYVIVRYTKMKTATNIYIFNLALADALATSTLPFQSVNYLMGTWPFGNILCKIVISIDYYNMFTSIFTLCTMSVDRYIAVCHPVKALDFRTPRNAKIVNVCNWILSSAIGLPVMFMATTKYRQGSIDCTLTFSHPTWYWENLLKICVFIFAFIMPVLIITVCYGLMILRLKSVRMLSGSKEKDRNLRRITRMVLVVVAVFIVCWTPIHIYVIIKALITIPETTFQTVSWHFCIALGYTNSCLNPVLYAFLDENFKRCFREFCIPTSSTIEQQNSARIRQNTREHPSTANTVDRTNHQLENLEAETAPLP

Target: Mu-type opioid receptor (Mus musculus) (UniProt P42866)
Experiment: Agonist activity at mouse MOR expressed in CHO cell membranes assessed as stimulation of [35S]-GTPgammaS binding measured after 1 hr by scintillation counting analysis relative to DAMGO
Assay type: functional
Conditions: Cell membrane

Molecule `CC(C)c1nnc(CCNC(=O)COCC(=O)NCCCCCCCNC(=O)COCC(=O)N[C@@H]2CC[C@@]3(O)[C@H]4Cc5ccc(O)c6c5[C@@]3(CCN4CC3CC3)[C@H]2O6)n1C1C[C@H]2CC[C@@H](C1)N2CC[C@H](NC(=O)C1CCC(F)(F)CC1)c1ccccc1` (stereo partly specified) has an Emax of 9.22%.
